The record followed here is patent publication US20250161419A1, “SERPIN PEPTIDES AND METHODS OF USING THE SAME” (SERPIN PHARMA, LLC, priority 2022, published 2025).

The test system of test [1] is mechanical hypersensitivity after PNL in mice. Briefly: Neuropathic pain model, partial nerve ligation (PNL), tactile allodynia by von Frey filaments. In kind it is in vivo, mouse. As to conditions: male mice. As to the method: Neuropathic pain model: Mice (n=30) were randomly assigned to two different groups: SP163M (2 μg/g; s.c. 100 μl) and vehicle (H20 s.c. 100 μl). Mice were treated 1 h prior to partial nerve ligation (PNL) and then daily at least 1 h prior to behavior testing for 2 weeks. PNL studies were performed as previously disclosed^59 and adapted for mice.^57 Male mice were anesthetized with 3% isoflurane (Vetone, USA) in 1.5 L/min oxygen (Praxair, USA) and maintained with 2.5% isoflurane. An incision was made along the long axis of the femur. The sciatic nerve was exposed at mid-thigh level by separating the biceps femoris and the gluteus superficialis and then carefully cleared of surrounding connective tissue. A 9-0 nylon suture (Ethicon, Inc., Somerville, NJ, USA) was inserted into the nerve and ligated so that the one-third to one-half of the nerve was included. The muscle and skin layers were closed using Reflex7 7 mm stainless steel wound clips (CellPoint Scientific, Inc., Gaithersburg, MD, USA). For behavior testing, mice were acclimated, and baseline tested for one week prior to PNL. […] Filaments were presented in a consecutive fashion either ascending or descending using the up-down method as previously disclosed^60 and modified for mice.^57,61 The filament that caused paw withdrawal 50% of the time (the 50% PWT) was determined. […]

Test [2] deals with eosinophil infiltration of skin in BALB/c mice. Briefly: Calcipotriol (MC903)/OVA induced atopic dermatitis model, eosinophils by MBP staining. In kind it is in vivo, mouse. As to the method:
Dermatitis was induced on the skin of BALB/c mice with a series of calcipotriol (MC903) and OVA challenges over an 8-week period. SP163M (100 μg/mouse), A1AT (2 mg/mouse) or vehicle (DDW) was given twice weekly starting at 4 weeks. The number of eosinophils infiltrating the epithelial sections were quantified by MBP staining.
Accordingly, SP163M improved outcomes in the atopic dermatitis animal model.

The test system of test [3] is formalin (2.5%) induced paw licking in C57BL6 mice. Nature of the test: Intraplantar formalin test. The test is classed as in vivo, mouse. As to conditions: for licking time, early phase (0-10 min): vehicle over 100 s. Here is the method:
Intraplantar formalin and capsaicin models: Male mice (n=33) were acclimated to the behavior testing facility for at least 60 min. Mice were randomized into four groups SP163M (0.02, 0.2, and 2 μg/g) or vehicle were administered subcutaneously. After 1 h, 20 μl of 2.5% formalin was injected subcutaneously into the plantar area of left hind paw. Immediately after formalin injection, mice were placed in a Plexiglas box (22×22×14 cm). Two observers, blinded to treatments, recorded the total amount of time mice spent on licking and flinching the left hind paw every 5 min over a one-hour period. To quantify the formalin response, activity during early phase (0-10 min) and later phase (15-50 min) were examined separately.

The next test concerns HaCat cells. Nature of the test: CellTiter-Glo cell viability of Poly IC induced HaCat cells. Particulars: Poly IC 50 μg/ml 24 hours, SP163M 100 μg/ml, p=0.0068 vs vehicle. In kind it is cell-based, human. As to the method: Cells were pretreated with either vehicle or SP163M (100 μg/ml). TSLP was measured in the supernatant via ELISA (p=0.0045 vs. vehicle treated Poly IC induced cells). FIG. 10B: HaCat cells treated as in FIG. 10A were analyzed via the CellTiter-Glo® Luminescent Cell Viability Assay by Promega. The percent change from untreated (no Poly IC) cells were compared between SP163M vs. vehicle treated poly IC induced control (p=0.0068). FIG. 10C: HaCat cells were insulted with TNFα and immunoblotted for phospho-IkBa (Ser32). GAPDH served as a loading control and signal normalization.
In this model of dermal inflammation, SP163M decreased a key cytokine (TSLP) that controls allergic responses, and protected cells from death.
(Cellular ATP, detected with luciferase, serves as a proxy for viable cell number.)

The next test has as its system phospho-STAT6. Nature of the test: IL-13 stimulated STAT6 phosphorylation in esophageal EPC2 cells (western blot). In kind it is cell-based, human. As to the method:
Esophageal EPC2 cells were treated with vehicle (ddw), A1AT or SP163M. Cells were collected at time-points indicated and western blot analysis of phospho-specific STAT6 was analyzed. […] Using CRISPER/CAS9 technology, an LRP1 knockout esophageal EPC2 cell line was created.
A general note: A western blot detects proteins with antibodies after separation by electrophoresis.

In the case of `CCCC[C@H](NC(=O)[C@H](CC(C)C)NC(=O)[C@H](Cc1ccccc1)NC(=O)[C@@H](NC(=O)[C@H](Cc1ccccc1)NC(=O)[C@@H]1CCCN1C(=O)[C@H](CCCCN)NC(=O)[C@H](CC(N)=O)NC(=O)[C@H](Cc1ccccc1)NC(=O)[C@H](CCCCN)NC(=O)[C@@H](NC(C)=O)C(C)C)C(C)C)C(=O)N[C@H](C(=O)N[C@@H](CCC(=O)O)C(=O)N[C@@H](CCC(N)=O)C(=O)N[C@@H](CC(N)=O)C(=O)N[C@H](C(=O)N[C@@H](CCCCN)C(N)=O)[C@@H](C)O)[C@@H](C)CC` [SP163M, Ac-VKFNKPFVFLNIeIEQNTK-NH2], in test [1] (2 μg/g s.c. 1 h before PNL then daily for two weeks), the “development of mechanical hypersensitivity (tactile allodynia, 50% PWT)” value is “did not develop mechanical hypersensitivity”. In test [1] (2 μg/g s.c. daily), the “duration of anti-allodynic effects” value is given as “sustained throughout day 9 post injury”. In addition, in test [2] (100 μg/mouse twice weekly starting at 4 weeks, p=0.045), the “eosinophils per section vs vehicle control” value is reported as “significantly lower levels of eosinophils per section compared to vehicle control”. Also, the “eosinophilic infiltration vs A1AT” value in test [2] (SP163M 100 μg/mouse vs A1AT 2 mg/mouse) is listed as “decreased eosinophilic infiltration compared to A1AT given at 20× higher dose”. For the same molecule, the “licking time, early phase (0-10 min)” value came out at 80 s in test [3] (0.02 μg/g s.c. 1 h before formalin) and 60 s in test [3] (2 μg/g s.c. 1 h before formalin). Also, the “AUC of licking time, late phase (15-50 min)” value in test [3] (0.02 μg/g s.c., vs vehicle, Tukey's post hoc test) is “p=ns”; in test [3] (0.2 and 2 μg/g s.c., vs vehicle) it was “reduced licking time in the late phase compared to vehicle controls”. In addition, in test [3] (2 μg/g s.c., vehicle peak after 25 min), the “peak late phase start time” value is reported as 30 min. In addition, in test [3] (low 0.02 and high 2 μg/g s.c., vs vehicle), the “area under the curve (AUC) of licking, early phase” value is “both the low and high SP163M treatment groups reached statistical significance”. For the same molecule, the cell viability result with HaCat cells is recorded as “increase in cell viability”. In addition, the “phosphorylated STAT6 in LRP1 knockout cell line” value with phospho-STAT6 (CRISPER/CAS9 LRP1 knockout EPC2 cells) is on record as “not capable of reducing phosphorylated STAT6”. For the same molecule, the “persistence of the reduction in STAT6 phosphorylation” value with phospho-STAT6 (EPC2 cells, IL-13) was “persisted for several hours post-treatment”. Further, in the test on phospho-STAT6 (EPC2 control cells), the “phospho-STAT6 expression in control cells (with LRP1)” value is “capable of reducing phospho-STAT6 expression”.
